# Laboratory results published in PubChem BioAssay (NCI).
# The entries are a selection whose mix differs from that of the whole data set. Where a structure was tested more than once in an assay, its records may differ in their call. The source made the active and inactive calls. Cut-off read from the data, not from the text of the source: active = growth inhibition above about 70%; inactive = the rest.
# Experiment: NCI Yeast Anticancer Drug Screen. Data for the CLN2oe strain (AID 163);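 note: 0% = growth of vehicle-only control cultures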
# Settings: S. cerevisiae CLN2oe strain, hits give high values
# Method: Growth inhibition of yeast strains with defined genetic alterations is measured as a screen for potential anti-cancer activity. Selected strains with alterations in DNA damage repair or cell cycle control were exposed to compounds and growth inhibition was measured relative to vehicle treated controls. The strain used in this assay is CLN2oe
Compound,growth inhibition (at 1.2 µM),growth inhibition (at 3.7 µM),growth inhibition (at 11.0 µM),growth inhibition (at 33.0 µM),growth inhibition (at 100.0 µM)
ClCCN1CCCCC1CCl (stereo not given),inactive: -1%,inactive: -5%,inactive: -1%,inactive: -1%,inactive: 27%
Cc1ccc([N+](=O)[O-])c(C[N+](C)(CCCl)CCCl)c1,inactive: -15%,inactive: -8%,inactive: -8%,inactive: 6%,inactive: 66%
COc1ccc(C[N+](C)(CCCl)CCCl)c([N+](=O)[O-])c1,inactive: -2%,inactive: -6%,inactive: -4%,inactive: -3%,inactive: 3%
COc1ccc([N+](=O)[O-])c(C[N+](C)(CCCl)CCCl)c1,inactive: 2%,inactive: 0%,inactive: -4%,inactive: 6%,inactive: 20%
Cn1cnc([N+](=O)[O-])c1C[N+](C)(CCCl)CCCl,inactive: -29%,inactive: -36%,inactive: -12%,inactive: 14%,inactive: 50%
Cc1cccc(C[N+](C)(CCCl)CCCl)c1[N+](=O)[O-],inactive: 10%,inactive: -8%,inactive: 2%,inactive: 20%,active: 70%
